The target of one assay is C-Raf (Homo sapiens, UniProt P04049). Nature of the assay: RAF Kinase Screening Assay (C-Raf). The following applies: Compound 50 tested at 30 μM.
A further assay deals with HCT-116 colon carcinoma. Put plainly: Inhibition of in vitro cell proliferation (HCT116).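 Further: cells exposed to compound for 24 h, then 14C-thymidine added for a further 24 h and its uptake into DNA counted by scintillation, DMSO-only wells as control.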 The class given is cell-based. To be noted: Homo sapiens, HCT-116, 14C-thymidine incorporation. As to the method:
(§1) The ability of a test compound to inhibit the proliferation of cell growth was determined by measuring incorporation of ^14C-labelled thymidine into newly synthesized DNA within the cells. This method was used on American Type Culture Collection (ATCC, Virginia) cell lines derived from carcinomas originating from several tissues such as HeLa cervical adenocarcinoma (ATCC Cat. #CCL-2), A375 malignant melanoma (ATCC Cat. #CRL-1619), HCT-116 colon carcinoma (ATCC Cat. #CCL-247). The A431 cell line for epidermoid carcinoma was grown in DMEM containing L-glutamine, sodium pyruvate, 1 g/L glucose+10% FBS.
(§2) The carcinoma cells are trypsinized and counted. The cells (3000-8000 count) are added to each well of a 96-well CytoStar tissue culture treated scintillating microplate (Amersham #RPNQ0160) in complete medium (100 μL) and the plate is then incubated in complete medium for 24 hrs at 37° C. in an inert atmosphere containing 5% CO2.
(§3) Test compound (1 μL) in 100% DMSO is added to the plate test-wells with DMSO only added to control-wells. The plate is incubated in complete medium for a second 24 hr period at 37° C. in an atmosphere containing 5% CO2.
(§4) An aliquot of a solution of Methyl ^14C-thymidine (56 mC/mmol) (NEN #NEC568 or Amersham #CFA532) in complete medium (20 uL to provide 0.2 μCi/well) is then added to each well and the plate is incubated for a third 24 hr period at 37° C. in an atmosphere containing 5% CO2.
(§5) The plate contents are then discarded, the plate is washed twice with PBS (200 μL) and then PBS (200 μL) is added to each well. The plate is sealed and the degree of methyl ^14C-thymidine incorporation is quantified on a Packard Top Count.
(§6) Cell culture reagents were obtained from Invitrogen (Carlsbad, Calif.) supplemental fetal calf serum was purchased from Hyclone, Logan Utah. Cells were maintained at 37 C plus 5% CO2, and grown as monolayers prior to tumor implantation.
A general note: Dividing cells build labelled thymidine or BrdU into new DNA.

A further assay relates to A375 malignant melanoma. Nature of the assay: Inhibition of in vitro cell proliferation (A375).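 Further: cells plated for 24 h, given compound for 24 h, then labelled with 14C-thymidine for another 24 h, with DMSO-only wells as control and counts read by scintillation.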 The class given is cell-based. To be noted: Homo sapiens, A-375, 14C-thymidine incorporation. As to the method: as §1, §2, §3, §4, §5, §6
For assay [1], the system named is HeLa cervical adenocarcinoma. Nature of the assay: Inhibition of in vitro cell proliferation (HeLa).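 Further: cells exposed to compound for 24 h, then labelled 24 h with methyl 14C-thymidine, with uptake into DNA counted by scintillation against DMSO-only control wells.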 Format: cell-based. The following applies: Homo sapiens, 14C-thymidine incorporation. The protocol:
as §1, §2, §3, §4, §5, §6

Take `CNC(=O)c1cc(Oc2ccc(NC(=O)Nc3ccc(Cl)c(C(F)(F)F)c3)cc2)ccn1` [BAY 43-9006, reference compound]: the “activity against C-Raf” value on C-Raf is on record as “Inhibition”.

The IC50 is the concentration that gives 50% inhibition. Low values mean greater potency, high ones weaker potency. Regarding `Cc1cc2c(F)c(Oc3ncnc(N)c3C=NOCCN3CCOCC3)ccc2[nH]1` [Cpd 14, 4-amino-6-(4-fluoro-2-methyl-1H-indol-5-yloxy)-pyrimidine-5-carbaldehyde O-(2-morpholin-4-yl-ethyl)-oxime], the IC50 in the assay on HCT-116 colon carcinoma worked out at 1.16 µM; with A375 malignant melanoma, 0.339 µM; in assay [1] it was 0.699 µM.

With `Cc1cc2c(F)c(Oc3ncnc(N)c3C=NOCCN(C)C)ccc2[nH]1` [Cpd 15, 4-amino-6-(4-fluoro-2-methyl-1H-indol-5-yloxy)-pyrimidine-5-carbaldehyde O-(2-dimethylamino-ethyl)-oxime], the values for the IC50 (with HCT-116 colon carcinoma; with A375 malignant melanoma; in assay [1]) were 4.25 µM, 0.501 µM and 3.23 µM, respectively.

In the case of `Cc1cc2c(F)c(Oc3ncnc(N)c3C=NOCCCN(C)C)ccc2[nH]1` [Cpd 17, 4-amino-6-(4-fluoro-2-methyl-1H-indol-5-yloxy)-pyrimidine-5-carbaldehyde O-(3-dimethylamino-propyl)-oxime], the figures for the IC50 (in the assay with HCT-116 colon carcinoma; with A375 malignant melanoma; in assay [1]) were 4.29 µM, 1.6 µM and 4.33 µM, respectively.

Turning to `C#CCON=Cc1c(N)ncnc1Oc1ccc2[nH]c(C)cc2c1F` [Cpd 30, 4-amino-6-(4-fluoro-2-methyl-1H-indol-5-yloxy)-pyrimidine-5-carbaldehyde O-prop-2-ynyl-oxime], the IC50 (in the assay with HCT-116 colon carcinoma; in assay [1]) was 0.028 µM in each case.
